# In ChEMBL document CHEMBL4680082 (J Med Chem, 2016):
# Chains of the proteins cited; added tags and fusions are not shown. Lines headed by an entry give the natural chain unless they say otherwise; changes in a name come on top.
# UniProt P28335: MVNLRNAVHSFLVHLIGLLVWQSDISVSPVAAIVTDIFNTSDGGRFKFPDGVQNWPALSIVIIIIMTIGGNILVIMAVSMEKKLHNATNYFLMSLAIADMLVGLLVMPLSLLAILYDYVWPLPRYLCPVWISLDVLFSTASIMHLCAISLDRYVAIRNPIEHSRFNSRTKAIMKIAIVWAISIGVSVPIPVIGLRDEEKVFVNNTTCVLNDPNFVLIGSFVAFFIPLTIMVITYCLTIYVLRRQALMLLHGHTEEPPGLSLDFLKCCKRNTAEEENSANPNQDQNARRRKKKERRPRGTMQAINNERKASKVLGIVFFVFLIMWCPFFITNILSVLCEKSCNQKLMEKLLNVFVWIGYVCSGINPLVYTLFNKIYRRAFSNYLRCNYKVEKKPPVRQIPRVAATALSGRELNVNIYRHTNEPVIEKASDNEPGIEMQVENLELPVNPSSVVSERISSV
# UniProt P41595, whole entry: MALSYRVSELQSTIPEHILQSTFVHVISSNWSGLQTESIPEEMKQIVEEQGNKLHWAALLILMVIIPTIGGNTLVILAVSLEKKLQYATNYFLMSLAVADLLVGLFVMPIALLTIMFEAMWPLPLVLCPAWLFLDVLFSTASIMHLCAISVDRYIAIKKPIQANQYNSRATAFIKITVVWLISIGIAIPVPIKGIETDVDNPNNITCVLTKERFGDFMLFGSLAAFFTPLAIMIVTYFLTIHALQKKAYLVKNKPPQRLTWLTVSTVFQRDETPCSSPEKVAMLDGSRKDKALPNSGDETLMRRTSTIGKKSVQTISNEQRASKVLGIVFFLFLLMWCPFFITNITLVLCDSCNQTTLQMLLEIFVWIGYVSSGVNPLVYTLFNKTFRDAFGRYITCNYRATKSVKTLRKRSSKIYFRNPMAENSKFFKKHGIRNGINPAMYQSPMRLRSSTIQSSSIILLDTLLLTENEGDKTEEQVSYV
# UniProt P28223, whole entry: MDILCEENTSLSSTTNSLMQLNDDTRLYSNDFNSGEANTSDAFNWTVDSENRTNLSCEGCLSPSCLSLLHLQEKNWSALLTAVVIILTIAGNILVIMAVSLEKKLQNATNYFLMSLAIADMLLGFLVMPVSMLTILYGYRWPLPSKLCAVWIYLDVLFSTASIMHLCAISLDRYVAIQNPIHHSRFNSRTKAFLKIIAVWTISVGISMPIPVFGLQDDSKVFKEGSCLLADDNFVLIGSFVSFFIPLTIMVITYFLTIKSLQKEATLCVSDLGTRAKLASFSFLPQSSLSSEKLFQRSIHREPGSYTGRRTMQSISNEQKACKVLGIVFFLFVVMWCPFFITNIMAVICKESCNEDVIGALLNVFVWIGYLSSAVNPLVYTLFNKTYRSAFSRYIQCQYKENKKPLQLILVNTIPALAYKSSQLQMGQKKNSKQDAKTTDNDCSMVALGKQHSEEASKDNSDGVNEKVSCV
# Active and inactive are the calls of the source. The calls are words filed in the database; no cut-off is given here.
# How the values were obtained:
# Assay type in all cases: functional, cell-based
# Conditions in all cases: dose microM <=10, time 1.0 hrs
# [1] = biological target: 5-hydroxytryptamine receptor 2C (Homo sapiens, UniProt P28335); assay: Agonist activity at human 5-HT2C receptor expressed in human Flp-In-293 cells assessed as induction of calcium flux up to 10 uM incubated for 1 hr by Fluo-4 direct dye based FLIPR assay
# [2] = biological target: 5-hydroxytryptamine receptor 2B (Homo sapiens, UniProt P41595); assay: Agonist activity at human 5-HT2B receptor expressed in human Flp-In-293 cells assessed as induction of calcium flux up to 10 uM incubated for 1 hr by Fluo-4 direct dye based FLIPR assay
# [3] = biological target: 5-hydroxytryptamine receptor 2A (Homo sapiens, UniProt P28223); assay: Agonist activity at human 5-HT2A receptor expressed in human Flp-In-293 cells assessed as induction of calcium flux up to 10 uM incubated for 1 hr by Fluo-4 direct dye based FLIPR assay
Structure (SMILES),Activity [1],Activity [2],Activity [3]
CCCOc1ccc2oc(CC)cc2c1[C@@H]1C[C@H]1CN,inactive,inactive,inactive
NC[C@@H]1C[C@H]1c1c(OCC2CC2)ccc2occc12,–,–,inactive
C=C(C)COc1ccc2occc2c1[C@@H]1C[C@H]1CN,–,–,inactive
NC[C@H]1C[C@@H]1c1c(OCCF)ccc2c1CCO2,–,inactive,–
CCc1cc2c([C@@H]3C[C@H]3CN)c(OCCF)ccc2o1,–,inactive,inactive
CCOc1ccc2oc(CC)cc2c1[C@@H]1C[C@H]1CN,–,inactive,inactive
C=CCOc1ccc2oc(CC)cc2c1[C@@H]1C[C@H]1CN,inactive,inactive,inactive
CCCOc1ccc2occc2c1[C@@H]1C[C@H]1CN,–,inactive,inactive
CCc1cc2c([C@@H]3C[C@H]3CN)c(OC)ccc2o1,–,inactive,inactive
CCCOc1ccc2occc2c1[C@H]1C[C@@H]1CN,–,inactive,–
C=CCOc1ccc2oc(CC)cc2c1[C@H]1C[C@@H]1CN,–,–,inactive
C=CCOc1ccc2occc2c1[C@@H]1C[C@H]1CN,–,inactive,inactive
C=CCOc1ccc2c(c1[C@@H]1C[C@H]1CN)CCO2,–,inactive,inactive
CCc1cc2c([C@@H]3C[C@H]3CN)c(OCC3CC3)ccc2o1,–,inactive,inactive
NC[C@@H]1C[C@H]1c1c(OCC2CC2)ccc2c1CCO2,–,inactive,inactive
NC[C@@H]1C[C@H]1c1c(OCCF)ccc2c1CCO2,–,inactive,–
CCCOc1ccc2c(c1[C@@H]1C[C@H]1CN)CCO2,–,inactive,inactive
C=C(F)COc1ccc2occc2c1[C@@H]1C[C@H]1CN,–,–,inactive
CCc1cc2c([C@H]3C[C@@H]3CN)c(OCC3CC3)ccc2o1,–,inactive,inactive
CCCOc1ccc2oc(CC)cc2c1[C@H]1C[C@@H]1CN,–,inactive,inactive
CCOc1ccc2occc2c1[C@@H]1C[C@H]1CN,–,inactive,–
